Test results reported in article PMC6014687 (2016).

What was measured:
in vitro = conditions: male, CD1, mouse, microsomes, pH 7.4
physchem [1] = conditions: pH 7.4
physchem [2] = conditions: pH 7.4; remark: listed apart in the source
[3] = pH 7.4

Row | Structure (SMILES) | microsomal CLint at 1 µM (in vitro) [µL/min/mg] | chromatographic logD (physchem [1]) | solubility kinetic at 2 h, 100 µM (physchem [2]) [µM] | decrease in lipophilicity [3] [log unit]
1 | Cc1ccc2cc(C(=O)Nc3cc(NC(=O)c4ccc5c(c4)OCCO5)ccc3C)ccc2n1 [Compound 1, N-(5-(2,3-Dihydrobenzo[b][1,4]dioxine-6-carboxamido)-2-methylphenyl)-2-methylquinoline-6-carboxamide] | 35 | 2.6 | – | –
2 | COCCOc1ccc2cc(C(=O)Nc3cc(NC(=O)c4ccc5c(c4)OCCO5)ccc3C)ccc2n1 [Compound 21, N-(5-(2,3-Dihydrobenzo[b][1,4]dioxine-6-carboxamido)-2-methylphenyl)-2-(2-methoxyethoxy)quinoline-6-carboxamide] | 92 | 3.3 | 5 (≈ 2.57 µg/mL) | –
3 | Cc1ccc(NC(=O)c2ccc3c(c2)OCCO3)cc1NC(=O)c1ccc2nc(OCCCN(C)C)ccc2c1 [Compound 22, N-(5-(2,3-Dihydrobenzo[b][1,4]dioxine-6-carboxamido)-2-methylphenyl)-2-(3-(dimethylamino)propoxy)quinoline-6-carboxamide] | 170 | 2 | 90 (≈ 48.7 µg/mL) | 1.4
4 | Cc1ccc(NC(=O)c2ccc3c(c2)OCCO3)cc1NC(=O)c1ccc2nc(OCCCN3CCOCC3)ccc2c1 [Compound 23, N-(5-(2,3-Dihydrobenzo[b][1,4]dioxine-6-carboxamido)-2-methylphenyl)-2-(3-morpholinopropoxy)quinoline-6-carboxamide] | 76 | 2.9 | 7 (≈ 4.08 µg/mL) | –
5 | Cc1ccc(NC(=O)c2ccc3c(c2)OCCO3)cc1NC(=O)c1ccc2nc(OCCCN3CCCCC3)ccc2c1 [Compound 24, N-(5-(2,3-Dihydrobenzo[b][1,4]dioxine-6-carboxamido)-2-methylphenyl)-2-(3-(piperidin-1-yl)propoxy)quinoline-6-carboxamide] | 24 | 2.4 | – | –

≈ marks a conversion by molar mass, not a printed value.
